Assay: Solubility in saline
Type: physicochemical
Details: saline dosing solution; 0.48 mmol/kg

SMILES: O=C(O)Cc1ccccc1 [PA, phenylacetic acid]
- Greatest quantity that would dissolve in a saline solution: 66 mg/kg
